This is a selection; strong and weak results do not stand in their true shares. The source made the active and inactive calls.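 Rule for the calls: active = inhibition above 20% in each of the two mixture wells holding the compound; inactive = inhibition of 20% or less in either well.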

Sequences of proteins named here, by UniProt entry; tags and fusion partners are left off. Residues count along the entry.
UniProt P08311, 21-244 limits assumed: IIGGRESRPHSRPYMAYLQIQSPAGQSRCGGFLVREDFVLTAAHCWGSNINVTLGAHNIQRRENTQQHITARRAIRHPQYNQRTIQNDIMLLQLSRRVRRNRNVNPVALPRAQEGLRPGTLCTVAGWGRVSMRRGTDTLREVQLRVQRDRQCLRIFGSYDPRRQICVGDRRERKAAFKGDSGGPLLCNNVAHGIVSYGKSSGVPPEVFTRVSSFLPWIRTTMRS

In the test the target is Cathepsin G (Homo sapiens) (UniProt P08311). As to the kind of experiment: human cathepsin G inhibitors, primary screen, biochemical, pooled compound mixtures, AMC fluorescence (AID 581).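 Note: 0% = enzyme control without mixture and 100% = blank lacking enzyme.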 The note with it: purified enzyme, AMC-tetrapeptide fluorescence, active compounds read high, screened at 5 µM (by protocol).
Regarding `CP(=O)(Nc1ccccc1F)Oc1ccccc1` (stereo not drawn), the inhibition (as a rule, the relative decrease from the control value, in per cent) is inactive: 8.98%.

For the compound `Cc1ccccc1NP(C)(=O)Nc1ccccc1C`, the inhibition is inactive: 1.49%.

Turning to `CP(=O)(Nc1ccc2c(c1)OCCO2)Oc1ccccc1` (stereo not drawn), the inhibition was inactive: 11.1%.

Regarding `CCOP(C)(=S)SCC(=O)NC(C)(CC)C(=O)O` (stereo not drawn), the inhibition was inactive: 0.005%.

In the case of `CN(C)CCOC(=O)C(O)(c1ccccc1)C1CCCCC1` (stereo not drawn), the inhibition was inactive: -3.18%.

Turning to `CP(=O)(Oc1ccccc1)N1CCOC1=O` (stereo not drawn), the inhibition was inactive: 11.6%.

On to `COc1ccccc1OP(C)(=O)Nc1c(C)n(C)n(-c2ccccc2)c1=O` (stereo not drawn), for which the inhibition was inactive: -3.69%.

In the case of `CCN(CC)CC(O)COC(=O)C(O)(c1ccccc1)C1CCCCC1` (stereo not drawn), the inhibition is inactive: 12.4%.

For the compound `CP(=O)(Nc1ccccn1)Oc1ccccc1` (stereo not drawn), the inhibition is inactive: 11.4%.

With `Cc1nc2ccc3ccccc3c2o1.O=[N+]([O-])c1cc([N+](=O)[O-])c(O)c([N+](=O)[O-])c1`, the inhibition is inactive: -13.3%.

For the compound `COc1ccccc1OP(C)(=O)Nc1ccc(C)c(C)c1` (stereo not drawn), the inhibition is inactive: 13.6%.

As to `COc1ccccc1OP(C)(=O)Nc1ccc(C)cc1` (stereo not drawn), the inhibition is inactive: -0.76%.

For `Cc1ccc(NP(C)(=O)Oc2ccccc2)c(C)c1` (stereo not drawn), the inhibition is inactive: -1.32%.

Take `CCOP(C)(=S)SCC(=O)NC(C)C(=O)O` (stereo not drawn): the inhibition is inactive: -15.7%.

`CP(=O)(NC(=O)Nc1ccccc1)Oc1ccccc1` (stereo not drawn): the inhibition was inactive: 1.88%.

With `CP(=S)(Nn1cnnc1)Oc1ccccc1` (stereo not drawn), the inhibition is inactive: 3.16%.

Turning to `Cc1nc2ccc3ccccc3c2s1.O=[N+]([O-])c1cc([N+](=O)[O-])c(O)c([N+](=O)[O-])c1`, the inhibition is inactive: 12.5%.

Regarding `Cc1ccc(C)c(NP(C)(=O)Oc2ccccc2)c1` (stereo not drawn), the inhibition was inactive: 2.36%.
